Screening results as filed in PubChem.
A selection: hits, their analogues and other compounds. The true share with any hit is near 0.43%.
GIV-Gai inh – GIV-Galpha-i interaction inhibition. P08753. Galpha-i3/FITC-GIV peptide fluorescence polarization, 90 min; active compounds read low; scaled: aluminum fluoride 0%, vehicle 100%. percent of control (FP), % (test concentration not listed). 210,000 compounds, 0.42% hits. AID 1224905;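 active = replicate mean at 85% of control or lower, very high polarization wells dropped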;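 also: lower values mean more displacement of the GIV peptide from Galpha-i3; wells of about 15 µL received 100 nL stock; the first replicate is given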
HCMV UL50-53 inh – inhibitors of HCMV UL50-UL53 interaction, biochemical, HTRF | AID 1918969, 2023 | inhibition, % (no concentration beside the values) | normalized percent inhibition | 190,000 compounds, 0.15% hits | HCMV UL50-UL53 nuclear egress complex (human cytomegalovirus); in the data active = inhibition above about 27%, passing the limit was not always enough
GIV Gai FP conf – inhibitors of GIV peptide binding to Galpha-i3, confirmation, biochemical, fluorescence polarization, FITC-GIV peptide, rat Galphai3. shares compounds with GIV-Gai inh. fluorescence polarization, mP at 100 µM. active compounds read low. 580 compounds, 38% hits;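 active = inhibition score of 15 or more, meaning 100 minus mean polarization as percent of control over three replicates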;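 also: lower mP means peptide displaced from Galphai3 so more inhibition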
GIV Gai AS conf – inhibitors of GIV binding to Galpha-i3, confirmation, orthogonal assay for GIV-Galpha-i inhibitor project, biochemical, AlphaScreen, His-GIV, GST-Galphai3 | shares compounds with GIV-Gai inh | purified proteins, 90 min; active compounds read low | AlphaScreen counts at 100 µM | 580 compounds, 39% hits | AID 1259351, 2017;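 active = inhibition score at or above a set limit, where the score is 100 minus the three-replicate mean percent of control signal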
A number is an active result; i = inactive; nt = no result given.

SMILES	GIV-Gai inh	HCMV UL50-53 inh	others
O=C(Nc1nc2n(n1)C(c1ccc(F)cc1)C=C(c1ccccc1)N2)c1ccc(Cl)cc1 (stereo not drawn)	i	i
CC1=C(C(=O)Nc2cccc(C)n2)C(c2cccc(Br)c2)C2=C(CC(C)(C)CC2=O)N1 (stereo not drawn)	i	i
O=C(COc1ccc2c(=O)c(Oc3ccccc3Br)coc2c1)OCc1ccccc1	i	i
CCC(C)(C)NC(=O)Cn1[nH]c(=O)c2ccccc2c1=O	nt	i
O=C(COC(=O)c1cccnc1Cl)c1ccccc1Br	nt	i
COc1ccc(NS(=O)(=O)c2sc(Cl)cc2Br)c(OC)n1	i	i
COc1cc(C=C2C(=O)N(C)C(=O)N(C)C2=O)ccc1Oc1nc(N2CCOCC2)nc(N2CCOCC2)n1	i	nt
N#Cc1c(N2CCCC2)nc(N)c2c(N)nc(N3CCCC3)cc12	nt	96.9
Cc1cc(C)c(C#N)c(N2CCCC2)n1	i	i
CN(C)N1C(=O)/C(=C/c2cccs2)SC1=Nc1ccccc1	85.5	i
COc1ccc2ccccc2c1/C=C1\SC(=Nc2ccccc2)N(N(C)C)C1=O	i	nt
Cc1ccc2[nH]c3nc(=S)[nH]nc3c2c1	i	i
Cc1cc2nc3c(=O)[nH]c(=O)nc-3n(C(O)C(O)C(O)C(O)CO)c2cc1C (stereo not drawn)	-74.4	i
Cc1cc2nc3c(=O)[nH]c(=O)nc-3n(C[C@@H](O)[C@@H](O)[C@@H](O)COP(=O)(O)O)c2cc1C	nt	i
O=S(=O)(c1cn(Cc2noc(Cc3ccc(Br)cc3)n2)cn1)N1CCCCC1	i	nt
COc1cccc(Cn2ccn(Cc3ccccc3)c(=O)c2=O)c1	i	i
CCCC(=O)Nc1cccn(Cc2cccc(OC)c2)c1=O	i	50.0
Cc1ccccc1NC(=O)C(C)Sc1nc2ccccc2c(=O)n1C (stereo not drawn)	i	i
CC(Sc1nc2ccccc2c(=O)n1C)C(=O)Nc1ccc2c(c1)OCCO2 (stereo not drawn)	nt	34.1
Nc1cccc(C(=O)NC2CC2)c1	nt	i
CC(=O)n1c(/C=C2\C=c3ccccc3=NC2=O)c(O)[nH]c1=S	49.2	i
CC(=O)n1c(O)c(/C=C2\C=c3ccc(C)cc3=NC2=O)sc1=N	i	nt
O=C(O)CNC(=O)c1ccc(S(=O)(=O)N2CCCC2)cc1	i	i
CC(C)c1nc(NCc2ccccc2)c(C#N)c2c1CCCC2	i	i
N#Cc1c(NCc2ccccc2)ncc2c1Nc1ccccc1C2	73.3	i
SMILES	GIV-Gai inh	HCMV UL50-53 inh	others
Cc1ccc(NC(=O)c2sc3ncn(CC(=O)N4CCC(C)CC4)c(=O)c3c2C)c(Br)c1	i	nt
Cn1c(=O)c(O)c2c3c(c(Br)ccc31)C(=O)c1ccccc1-2	-29.3	nt
Cn1c(=O)cc2c3c(c(Br)ccc31)C(=O)c1ccccc1-2	i	nt
CCn1c(-c2nonc2N)nc2c(C#CC(C)(C)O)ncc(OCC3CCCNC3)c21 (stereo not drawn)	nt	i
Cc1cc(C)nc(NC(c2ccccc2)c2cc(C)sc2NC(=O)c2ccccc2)n1 (stereo not drawn)	i	i
Cc1cc(C)nc(NC(c2cccc(F)c2)c2cc(C)sc2NC(=O)c2ccccc2)n1 (stereo not drawn)	68.6	i	GIV Gai FP conf=i;GIV Gai AS conf=i
CC1(C)CC(=O)C2=C(C1)c1c(ccc3ccccc13)NC2c1cc([N+](=O)[O-])ccc1O (stereo not drawn)	i	nt
COc1ccc(-c2nc3c(=O)n(C)c(=O)nc-3n(C)n2)cc1OC	57.3	i	GIV Gai FP conf=41.5;GIV Gai AS conf=27053
COc1ccc(-c2c(-c3ccc(OC)c(OC)c3)c(C)n(C)c2C)cc1OC	i	i
Cn1nc(-c2ccc(F)cc2)nc2c(=O)n(C)c(=O)nc1-2	14.8	83.1	GIV Gai FP conf=27.8;GIV Gai AS conf=i
COc1ccc(-n2ccc(=O)c(-c3nc(-c4ccc(F)cc4)no3)n2)cc1	i	nt
Cc1ccc(NC(=O)COC(=O)c2ccc[nH]c2=O)c(S(=O)(=O)N2CCOCC2)c1	nt	i
Cc1ccc(C(=O)CNc2cccc3ccccc23)cc1	nt	i
COc1cc(C(CC(=O)Nc2cc(C)ccc2C)N2Cc3ccccc3C2=O)cc(OC)c1OC (stereo not drawn)	i	nt
O=C(C1CCCCC1)N1CCN(c2cc(C(F)(F)F)nc3ccccc23)CC1	i	i
O=C(O)CSCC(=O)N1CCN(c2cc(C(F)(F)F)nc3ccccc23)CC1	i	i	GIV Gai FP conf=i;GIV Gai AS conf=i
CCOC(=O)C1=C(C)NC2=C(C(=O)C(C(=O)OC)C(C)C2)C1c1cccc(OC)c1OC (stereo not drawn)	i	i
CNC(=O)NCCc1ccc(Cl)cc1	i	i
CC(NC(=O)c1ccccc1C(=O)NC(C)c1ccc2c(c1)OCCO2)c1ccc2c(c1)OCCO2 (stereo not drawn)	i	i
CC(NCCO)c1ccc2c(c1)OCCO2 (stereo not drawn)	78.2	i	GIV Gai FP conf=i;GIV Gai AS conf=i
CCCC(CCC)C(=O)Nc1ccc2c(c1)Nc1ccccc1CC2	i	nt
CCOc1ccc(N2C(=O)/C(=C\C3C(=O)N(c4ccccc4)N=C3C)C(=O)NC2=S)cc1 (stereo not drawn)	i	nt
C=CCNC(=O)N1CCc2[nH]c3ccc(F)cc3c2C1	85.3	i	GIV Gai FP conf=58.6;GIV Gai AS conf=i
Cc1nnsc1C(=O)N1CCc2[nH]c3ccc(F)cc3c2C1	i	i
Cc1onc(-c2c(F)cccc2Cl)c1C(=O)N(CCO)CCO	nt	i
SMILES	GIV-Gai inh	HCMV UL50-53 inh	others
CNC(=O)CCCc1nc(-c2ccc(OC)cc2)no1	i	i
COc1ccc(-c2noc(CCCC(=O)Nc3nccs3)n2)cc1	i	i	GIV Gai FP conf=i;GIV Gai AS conf=i
COc1ccc(C(=O)NC(c2ccccc2Cl)c2cc(Cl)c3cccnc3c2O)cc1 (stereo not drawn)	i	nt
COc1ccc(C(=O)NC(c2ccc(C)cc2)c2cc(Cl)c3cccnc3c2O)cc1 (stereo not drawn)	80.3	nt	GIV Gai FP conf=61;GIV Gai AS conf=i
COC(=O)c1ccc2c(=O)n(CCc3ccc(S(N)(=O)=O)cc3)c(SCc3cccc(Cl)c3)nc2c1	i	nt
Cc1cc(N)nc(SCCCN(C)C)n1	i	i
O=C(CSc1nnc(-c2ccco2)c(-c2ccco2)n1)Nc1ccc(C(=O)O)cc1	76.9	i	GIV Gai FP conf=60;GIV Gai AS conf=2995
COc1ccc(C(=O)CSc2nnc(-c3ccco3)c(-c3ccco3)n2)cc1	i	nt
COc1ccc(C(=O)N(Cc2sccc2C)C2CCS(=O)(=O)C2)cc1Cl (stereo not drawn)	i	i
O=C1/C(=C/c2ccncc2)CCC/C1=C\c1ccncc1	51.5	i	GIV Gai FP conf=51.1;GIV Gai AS conf=18754
O=C1/C(=C/c2cccnc2)CCCC/C1=C\c1cccnc1	nt	i
O=C(CNC(=O)c1ccccc1F)NCc1ccco1	i	nt
Cc1ccc(-n2c3nc(=O)[nH]c(=O)c-3cc3ccccc32)cc1Cl	i	nt
COc1ccc(-n2c3nc(=O)[nH]c(=O)c-3cc3ccccc32)cc1	71.1	nt	GIV Gai FP conf=i;GIV Gai AS conf=8986
CN(C)c1ccc(C(CNS(C)(=O)=O)N2CCN(c3ccc(F)cc3)CC2)cc1 (stereo not drawn)	i	i
